The assay concerns the target Cholinesterase (Homo sapiens, UniProt P06276). As to the kind of experiment: Binding affinity to human BuChE (unknown origin) assessed as overall carbamolyation rate at 0.01 to 40 nM incubated for 60 mins.

By UniProt entry, the sequences of proteins in these tests, tags left out.
UniProt P06276, whole entry: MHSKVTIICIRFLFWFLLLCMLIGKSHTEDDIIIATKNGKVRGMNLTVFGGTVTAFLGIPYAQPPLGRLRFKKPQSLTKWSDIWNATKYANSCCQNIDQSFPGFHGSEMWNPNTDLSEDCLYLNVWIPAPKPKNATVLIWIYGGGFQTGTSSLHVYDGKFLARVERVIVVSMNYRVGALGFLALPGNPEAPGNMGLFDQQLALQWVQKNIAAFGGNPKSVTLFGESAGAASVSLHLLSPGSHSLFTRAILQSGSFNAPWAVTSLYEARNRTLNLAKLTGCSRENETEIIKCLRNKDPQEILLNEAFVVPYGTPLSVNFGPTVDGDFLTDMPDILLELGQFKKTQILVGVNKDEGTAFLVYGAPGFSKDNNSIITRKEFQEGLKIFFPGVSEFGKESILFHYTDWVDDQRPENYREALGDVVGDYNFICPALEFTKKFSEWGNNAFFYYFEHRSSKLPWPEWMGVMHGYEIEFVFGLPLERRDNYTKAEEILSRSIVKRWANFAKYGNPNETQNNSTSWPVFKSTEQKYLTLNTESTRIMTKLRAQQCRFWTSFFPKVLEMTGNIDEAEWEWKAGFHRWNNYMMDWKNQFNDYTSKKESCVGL

By Ki is commonly meant the equilibrium dissociation constant of an inhibitor or competing ligand from its target.

The structures appear in SMILES notation.

For `CCN(C)C(=O)Oc1cccc([C@H](C)N(C)C)c1` [3-[(1S)-1-(dimethylamino)ethyl]phenyl N-ethyl-N-methylcarbamate], the Ki came to 5.7 nM.
